Results published in ChEMBL document CHEMBL4373747 (ACS Med Chem Lett, 2020).

By UniProt entry, the sequences of proteins in these tests, tags left out. Where a name states a change or a piece, a line headed by the entry shows the natural chain unless it says otherwise.
UniProt Q9UKV0: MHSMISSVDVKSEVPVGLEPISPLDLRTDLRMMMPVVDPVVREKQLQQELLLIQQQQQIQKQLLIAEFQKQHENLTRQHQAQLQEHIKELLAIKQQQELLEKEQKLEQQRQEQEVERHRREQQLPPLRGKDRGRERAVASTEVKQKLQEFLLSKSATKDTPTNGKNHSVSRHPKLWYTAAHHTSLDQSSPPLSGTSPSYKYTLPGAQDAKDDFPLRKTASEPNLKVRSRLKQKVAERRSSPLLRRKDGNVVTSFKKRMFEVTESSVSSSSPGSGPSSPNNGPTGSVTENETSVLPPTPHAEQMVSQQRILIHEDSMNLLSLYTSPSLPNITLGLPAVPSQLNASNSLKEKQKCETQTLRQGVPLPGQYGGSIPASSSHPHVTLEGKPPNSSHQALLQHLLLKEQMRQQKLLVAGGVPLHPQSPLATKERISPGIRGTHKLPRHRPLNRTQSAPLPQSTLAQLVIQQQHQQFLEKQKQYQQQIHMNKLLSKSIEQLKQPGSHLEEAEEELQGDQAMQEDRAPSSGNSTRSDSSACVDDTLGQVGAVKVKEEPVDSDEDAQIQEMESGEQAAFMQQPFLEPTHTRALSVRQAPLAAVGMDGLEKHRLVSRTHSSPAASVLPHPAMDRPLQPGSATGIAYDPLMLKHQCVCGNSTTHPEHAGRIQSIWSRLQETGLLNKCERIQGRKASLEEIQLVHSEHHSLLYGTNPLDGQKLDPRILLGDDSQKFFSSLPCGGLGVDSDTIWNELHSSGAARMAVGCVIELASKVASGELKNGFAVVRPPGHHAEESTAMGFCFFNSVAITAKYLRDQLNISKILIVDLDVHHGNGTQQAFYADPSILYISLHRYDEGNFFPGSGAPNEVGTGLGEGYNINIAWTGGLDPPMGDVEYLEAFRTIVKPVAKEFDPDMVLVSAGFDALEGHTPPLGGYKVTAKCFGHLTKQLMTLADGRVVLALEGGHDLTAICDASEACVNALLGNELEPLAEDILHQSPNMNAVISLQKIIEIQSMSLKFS
UniProt Q9UQL6: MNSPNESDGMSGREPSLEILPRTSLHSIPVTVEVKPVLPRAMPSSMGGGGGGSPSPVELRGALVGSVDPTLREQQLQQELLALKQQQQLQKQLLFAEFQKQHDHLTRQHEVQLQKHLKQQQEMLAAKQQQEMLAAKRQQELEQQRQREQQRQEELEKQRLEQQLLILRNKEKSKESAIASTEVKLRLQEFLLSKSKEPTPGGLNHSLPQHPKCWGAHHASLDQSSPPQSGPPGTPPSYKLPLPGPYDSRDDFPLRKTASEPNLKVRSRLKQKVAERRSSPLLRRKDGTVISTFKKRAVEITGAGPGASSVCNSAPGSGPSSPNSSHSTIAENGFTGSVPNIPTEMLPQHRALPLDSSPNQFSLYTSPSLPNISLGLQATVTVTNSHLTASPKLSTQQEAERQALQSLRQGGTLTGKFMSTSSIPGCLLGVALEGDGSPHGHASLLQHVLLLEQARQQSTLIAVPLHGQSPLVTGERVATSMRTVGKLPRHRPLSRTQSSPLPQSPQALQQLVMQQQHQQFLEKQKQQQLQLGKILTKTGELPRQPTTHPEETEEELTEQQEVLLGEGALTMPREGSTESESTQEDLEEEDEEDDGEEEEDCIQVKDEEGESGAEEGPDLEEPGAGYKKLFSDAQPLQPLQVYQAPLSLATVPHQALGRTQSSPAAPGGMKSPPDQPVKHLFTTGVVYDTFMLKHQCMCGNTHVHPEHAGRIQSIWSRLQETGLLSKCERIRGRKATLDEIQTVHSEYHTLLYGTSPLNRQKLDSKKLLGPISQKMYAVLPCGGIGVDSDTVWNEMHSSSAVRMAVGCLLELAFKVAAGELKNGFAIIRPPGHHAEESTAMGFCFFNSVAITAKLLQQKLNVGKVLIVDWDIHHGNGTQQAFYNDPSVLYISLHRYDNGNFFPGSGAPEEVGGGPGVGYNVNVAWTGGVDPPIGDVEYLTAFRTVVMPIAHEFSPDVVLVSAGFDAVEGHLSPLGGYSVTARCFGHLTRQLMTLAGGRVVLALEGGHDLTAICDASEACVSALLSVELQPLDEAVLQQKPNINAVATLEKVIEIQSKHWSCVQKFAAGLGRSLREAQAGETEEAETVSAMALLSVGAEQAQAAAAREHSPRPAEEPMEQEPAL

Legend:
Histone deacetylase 9 = Histone deacetylase 9 (Homo sapiens, UniProt Q9UKV0); experiment: Inhibition of recombinant human HDAC9 (604-1066 residues) expressed in baculovirus infected Sf9 cells using FAM-RHKK-TFAc as substrate incubated for 3 hrs by electrophoretic mobility shift assay
Histone deacetylase 5 = Histone deacetylase 5 (Homo sapiens, UniProt Q9UQL6); experiment: Inhibition of recombinant full length human HDAC5 expressed in baculovirus infected Sf9 cells using FAM-RHKK-TFAc as substrate incubated for 3 hrs by electrophoretic mobility shift assay

IC50 (Histone deacetylase 9): > 1000 nM
IC50 (Histone deacetylase 5): 776 nM
SMILES: CC(/C=C/C(=O)NO)=C\[C@@H](C)C(=O)c1ccc(N(C)C)cc1 [TRICHOSTATIN]
